By UniProt entry, the sequences of proteins in these tests, tags left out. Where a name states a change or a piece, a line headed by the entry shows the natural chain unless it says otherwise.
UniProt O60674: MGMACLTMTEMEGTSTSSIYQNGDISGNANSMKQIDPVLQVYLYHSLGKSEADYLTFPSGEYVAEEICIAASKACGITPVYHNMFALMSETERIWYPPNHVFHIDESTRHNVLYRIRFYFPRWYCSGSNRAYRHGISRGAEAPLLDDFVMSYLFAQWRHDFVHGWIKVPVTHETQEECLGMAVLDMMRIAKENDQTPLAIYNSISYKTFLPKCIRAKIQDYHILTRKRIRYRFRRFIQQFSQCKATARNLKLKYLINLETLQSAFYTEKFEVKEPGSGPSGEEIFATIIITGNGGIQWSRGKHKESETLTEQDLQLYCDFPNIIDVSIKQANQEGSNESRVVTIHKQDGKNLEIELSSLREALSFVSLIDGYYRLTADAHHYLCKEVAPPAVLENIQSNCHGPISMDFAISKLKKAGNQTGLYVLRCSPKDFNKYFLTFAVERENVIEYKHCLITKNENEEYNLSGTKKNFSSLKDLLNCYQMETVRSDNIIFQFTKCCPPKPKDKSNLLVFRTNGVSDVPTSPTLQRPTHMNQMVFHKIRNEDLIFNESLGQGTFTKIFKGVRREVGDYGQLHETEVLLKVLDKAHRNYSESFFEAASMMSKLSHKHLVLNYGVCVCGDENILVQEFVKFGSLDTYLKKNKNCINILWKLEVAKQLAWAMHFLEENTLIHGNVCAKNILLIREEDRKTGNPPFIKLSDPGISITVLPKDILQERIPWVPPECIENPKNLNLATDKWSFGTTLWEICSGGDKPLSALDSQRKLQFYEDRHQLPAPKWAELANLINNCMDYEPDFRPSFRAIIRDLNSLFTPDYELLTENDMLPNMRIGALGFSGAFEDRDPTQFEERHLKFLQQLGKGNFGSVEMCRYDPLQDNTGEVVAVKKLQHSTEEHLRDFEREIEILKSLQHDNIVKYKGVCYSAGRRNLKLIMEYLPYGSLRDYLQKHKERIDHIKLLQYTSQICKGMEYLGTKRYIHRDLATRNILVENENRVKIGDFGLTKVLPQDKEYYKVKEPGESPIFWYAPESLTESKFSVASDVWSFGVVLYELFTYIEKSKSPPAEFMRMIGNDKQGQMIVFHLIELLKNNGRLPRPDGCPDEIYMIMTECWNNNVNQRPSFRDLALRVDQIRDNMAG

In US10246466B2, “Diaryl macrocycles as modulators of protein kinases” (TP THERAPEUTICS, INC., priority 2014, dated 2019):

Target: JAK2 (Homo sapiens (Human), UniProt O60674)
Assay: KINOMEscan kinase binding assay (DiscoveRx)
Protocol: Kinase binding assays were performed at DiscoveRx using the general KINOMEscan Kd Protocol (Fabian, M. A. et al., “A small molecule-kinase interaction map for clinical kinase inhibitors,” Nat. Biotechnol. 2005, 23(3):329-36). For most assays, kinase-tagged T7 phage strains were prepared in an E. coli host derived from the BL21 strain. E. coli were grown to log-phase and infected with T7 phage and incubated with shaking at 32° C. until lysis. The lysates were centrifuged and filtered to remove cell debris. The remaining kinases were produced in HEK-293 cells and subsequently tagged with DNA for qPCR detection. Streptavidin-coated magnetic beads were treated with biotinylated small molecule ligands for 30 minutes at room temperature to generate affinity resins for kinase assays. The liganded beads were blocked with excess biotin and washed with blocking buffer (SeaBlock (Pierce), 1% BSA, 0.05% Tween 20, 1 mM DTT) to remove unbound ligand and to reduce nonspecific binding. […] All reactions were performed in polystyrene 96-well plates in a final volume of 0.135 mL. The assay plates were incubated at room temperature with shaking for 1 hour and the affinity beads were washed with wash buffer (1×PBS, 0.05% Tween 20). […] The kinase concentration in the eluates was measured by qPCR.

Compound: C[C@H]1CNC(=O)c2cnn3ccc(nc23)N[C@H](C)c2cc(F)ccc2O1 [Example 93, (7S,13R)-11-fluoro-7,13-dimethyl-6,7,13,14-tetrahydro-1,15-ethenopyrazolo[4,3-f][1,4,8,10]benzoxatriazacyclotridecin-4(5H)-one]
- Kd: 82 pM
